Test results as given in publication PMC7042484 (Redox Biology, 2020).

Biological target: T1, human NOX4 (Homo sapiens, UniProt Q9NPH5)
T1 sequence (Q9NPH5 1-578): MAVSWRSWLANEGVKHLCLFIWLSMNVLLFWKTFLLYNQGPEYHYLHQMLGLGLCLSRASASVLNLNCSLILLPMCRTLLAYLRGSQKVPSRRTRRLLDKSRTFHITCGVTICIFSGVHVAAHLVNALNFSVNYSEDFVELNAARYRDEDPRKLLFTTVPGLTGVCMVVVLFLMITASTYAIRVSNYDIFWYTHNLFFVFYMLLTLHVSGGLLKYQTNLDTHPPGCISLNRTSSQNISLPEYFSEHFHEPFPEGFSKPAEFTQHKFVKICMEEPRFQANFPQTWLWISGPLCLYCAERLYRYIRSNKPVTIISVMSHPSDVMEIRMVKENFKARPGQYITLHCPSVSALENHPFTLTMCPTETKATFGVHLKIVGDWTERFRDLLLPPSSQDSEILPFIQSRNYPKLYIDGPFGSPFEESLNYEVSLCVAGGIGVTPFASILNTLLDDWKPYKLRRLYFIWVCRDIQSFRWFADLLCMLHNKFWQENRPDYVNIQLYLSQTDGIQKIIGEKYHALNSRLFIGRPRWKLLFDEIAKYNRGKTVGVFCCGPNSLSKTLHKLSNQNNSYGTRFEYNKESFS
T1 sequence (P13498 2-195 partner limits assumed): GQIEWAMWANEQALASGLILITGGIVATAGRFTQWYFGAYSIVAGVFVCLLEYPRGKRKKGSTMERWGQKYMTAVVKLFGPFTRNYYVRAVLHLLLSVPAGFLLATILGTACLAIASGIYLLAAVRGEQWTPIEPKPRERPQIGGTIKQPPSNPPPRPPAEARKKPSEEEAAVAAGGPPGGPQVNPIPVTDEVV
Test: Amplex red/peroxidase assay on NOX4 membranes
Format: biochemical

c1ccc2c(c1)[I+]c1ccccc1-2 [DPI, Diphenylene iodonium]
IC50: 2260 ± 1180 nM
